In ChEMBL document CHEMBL1212821 (J Med Chem, 2010):

Target: T1, Kinesin-like protein KIF11 (Homo sapiens, UniProt P52732)
T1 sequence (P52732 whole entry): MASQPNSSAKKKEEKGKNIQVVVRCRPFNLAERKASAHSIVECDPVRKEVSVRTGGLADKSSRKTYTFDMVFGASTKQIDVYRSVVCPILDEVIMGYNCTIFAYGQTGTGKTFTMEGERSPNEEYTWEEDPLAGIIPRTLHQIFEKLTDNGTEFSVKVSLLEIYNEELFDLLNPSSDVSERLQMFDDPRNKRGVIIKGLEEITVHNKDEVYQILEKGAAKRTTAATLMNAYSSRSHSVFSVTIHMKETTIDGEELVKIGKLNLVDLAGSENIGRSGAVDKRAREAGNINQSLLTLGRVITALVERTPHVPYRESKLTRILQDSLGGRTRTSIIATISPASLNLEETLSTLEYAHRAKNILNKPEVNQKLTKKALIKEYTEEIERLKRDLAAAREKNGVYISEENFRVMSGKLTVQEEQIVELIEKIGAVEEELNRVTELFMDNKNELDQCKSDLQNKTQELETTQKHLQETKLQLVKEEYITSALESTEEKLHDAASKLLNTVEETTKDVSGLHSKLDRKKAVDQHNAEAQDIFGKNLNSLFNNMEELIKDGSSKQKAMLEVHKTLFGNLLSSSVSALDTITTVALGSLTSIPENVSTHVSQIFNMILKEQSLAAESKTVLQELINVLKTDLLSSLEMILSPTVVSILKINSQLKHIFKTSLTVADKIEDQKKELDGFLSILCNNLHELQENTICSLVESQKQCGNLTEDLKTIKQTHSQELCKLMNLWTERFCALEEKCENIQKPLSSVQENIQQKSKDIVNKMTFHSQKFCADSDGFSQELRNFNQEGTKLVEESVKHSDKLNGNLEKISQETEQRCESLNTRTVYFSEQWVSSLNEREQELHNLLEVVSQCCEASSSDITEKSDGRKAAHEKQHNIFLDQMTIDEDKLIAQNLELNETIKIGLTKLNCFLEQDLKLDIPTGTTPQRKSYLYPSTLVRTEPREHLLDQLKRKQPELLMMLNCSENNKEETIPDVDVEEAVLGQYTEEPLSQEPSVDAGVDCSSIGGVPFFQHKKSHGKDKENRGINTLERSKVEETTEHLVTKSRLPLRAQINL
Test: Inhibition of human kinesin Eg5

Structure (SMILES): O=C1CCCC2=C1[C@H](c1cccc(O)c1)NC(=S)N2 [(S)-ENASTRON]
- IC50: 2000 nM
